# Binding of CDR-mutated scFvs to a peptide of the spike HR2 region

Reference: Engelhart et al. 2022, doi:10.1038/s41597-022-01779-4. File: FLAb, binding data.

Target peptide (SARS-CoV-2 spike, HR2 region): PDVDLGDISGINAS

The variants keep the heavy chain, the linker and the frameworks of Ab-95 (scFv order VH, a (GGGGS)3 linker, VL).
VH: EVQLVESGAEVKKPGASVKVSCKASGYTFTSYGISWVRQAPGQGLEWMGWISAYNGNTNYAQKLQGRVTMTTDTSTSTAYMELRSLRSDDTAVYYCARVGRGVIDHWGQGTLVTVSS
VL: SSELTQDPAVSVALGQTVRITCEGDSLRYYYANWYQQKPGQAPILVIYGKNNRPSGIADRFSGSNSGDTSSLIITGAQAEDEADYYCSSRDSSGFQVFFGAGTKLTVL

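Phage display of a naive human antibody library on the peptide gave the parent. Variants in AAYL52 differ from the parent at up to three CDR positions; double and triple changes were sampled at random. The assay is AlphaSeq: two haploid yeast populations carry antibody and antigen on their surface. Binding brings cells together so that they mate, and sequencing counts the barcode pairs among the diploids. Each replicate has its own calibration line, from reference interactions of the BCL2 family. Mating was done three times.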

Substitutions are numbered in sequence along the VL above, starting at 1 (not Kabat).
Values are log10 of the apparent Kd in nM; lower means stronger binding.
A mean of the replicates is given; it leaves out those without a signal.
"nd" means that the variant was in the library but no mating with the target was seen in any replicate; the authors take this as a sign of poor binding, and no number exists.

| # | mean log10 Kd (nM) | detected | changes |
|---|---|---|---|
| 1 | 4.08 | 3/3 | G49V+S55P+F95D |
| 2 | 3.91 | 1/3 | Y30I+A32N+V97L |
| 3 | 3.43 | 1/3 | R28Y+Y29S+N51P |
| 4 | 5.29 | 2/3 | A32E+K50M+S93G |
| 5 | 4.24 | 1/3 | L27E+N52K+R90K |
| 6 | 4.62 | 1/3 | E23W+Y29H+A32I |
| 7 | 3.64 | 3/3 | R53H+G94I+V97E |
| 8 | nd | 0/3 | Y29P+K50D+R90I |
| 9 | 3.18 | 2/3 | Y31M+N33E+V97N |
| 10 | 3.65 | 1/3 | S26D+S88V+S93N |
| 11 | nd | 0/3 | A32F+N51I+R53E |
| 12 | 3.58 | 3/3 | N51K+R90Y+V97R |
| 13 | nd | 0/3 | Y29L+K50I+S89N |
| 14 | nd | 0/3 | N52G+S89F |
| 15 | nd | 0/3 | N33V+N51F+G94L |
| 16 | 2.14 | 3/3 | N52T+S88L+S89H |
| 17 | 4.13 | 3/3 | G24M+Y31F+D91K |
| 18 | 3.49 | 2/3 | P54H+S93C+F98R |
| 19 | 3.39 | 3/3 | N51S+Q96G+F98R |
| 20 | 2.56 | 3/3 | S26W+R28N+R53I |
| 21 | nd | 0/3 | N51I+N52P+S92A |
| 22 | 3.02 | 2/3 | Y30R+Y31N+N51H |
| 23 | 4.96 | 2/3 | S26R+A32M+G94C |
| 24 | 3.48 | 2/3 | Q96E+V97Y |
| 25 | 2.47 | 3/3 | R28N+R90F+V97M |
| 26 | 3.79 | 1/3 | S26L+Y30H+S88I |
| 27 | nd | 0/3 | G24D+V97M+F98R |
| 28 | 2.85 | 3/3 | E23N+N51Q+D91S |
| 29 | 5.04 | 2/3 | A32M+R90P+Q96T |
| 30 | nd | 0/3 | D25K+R90L+Q96D |
| 31 | 4.25 | 3/3 | L27P+A32L+R90F |
| 32 | 3.15 | 1/3 | Y29E+S93G+G94Y |
| 33 | 3.35 | 1/3 | L27D+A32D+P54N |
| 34 | 4.55 | 1/3 | R28A+N51K+Q96F |
| 35 | nd | 0/3 | G24W+A32P+G49K |
| 36 | 4.19 | 2/3 | G24N+S89E+G94A |
| 37 | 4.35 | 1/3 | K50C+N52S+Q96L |
| 38 | 3.80 | 2/3 | D25Q+Y29V+Y31L |
| 39 | 2.80 | 1/3 | N33M+P54E+D91Y |
| 40 | 2.59 | 3/3 | S89F+S92R+V97N |
| 41 | 2.87 | 3/3 | E23P+D25K+P54G |
| 42 | 3.11 | 3/3 | N52K+S93T+F98V |
| 43 | 4.00 | 2/3 | Y31A+A32Q+V97L |
| 44 | 1.76 | 3/3 | Y30Q+S92H+F95H |
| 45 | 4.06 | 1/3 | D25H+A32E+N52K |
| 46 | 3.75 | 2/3 | L27E+S55G+V97R |
| 47 | nd | 0/3 | A32V+P54I+Q96L |
| 48 | 2.72 | 3/3 | A32N+S55Q+S93K |
| 49 | 3.38 | 1/3 | R53P+S89L+D91Y |
| 50 | 2.84 | 3/3 | S93V+G94T+V97A |
| 51 | 2.69 | 3/3 | Y31M+S55N+D91A |
| 52 | 3.32 | 3/3 | Y29K+P54R |
| 53 | 4.42 | 1/3 | G49I+S92Q+Q96H |
| 54 | 4.37 | 1/3 | N51K+S88A+R90T |
| 55 | 4.60 | 1/3 | S55H+S89M+R90T |
| 56 | 4.35 | 3/3 | A32H+S88P+S89W |
| 57 | 4.97 | 2/3 | R28A+Y30R+G49L |
| 58 | 2.86 | 3/3 | D25Q+Y31G+N52H |

The opening 9 entries, copied out:

changes,mean log10 Kd (nM),detected
G49V+S55P+F95D,4.08,3/3
Y30I+A32N+V97L,3.91,1/3
R28Y+Y29S+N51P,3.43,1/3
A32E+K50M+S93G,5.29,2/3
L27E+N52K+R90K,4.24,1/3
E23W+Y29H+A32I,4.62,1/3
R53H+G94I+V97E,3.64,3/3
Y29P+K50D+R90I,nd,0/3
Y31M+N33E+V97N,3.18,2/3

In this assay the parent's reference entry averaged 2.31; its copy inside this library read 2.25.
Nonspecific signal, from three strains lacking the peptide, appeared in 28% of pairings of library AAYL52, centred on 3.91 (5% of these signals below 2.90); values are not corrected for it.